The record followed here is patent US6548042B2, “Bis-phosphonate compounds” (priority 2000, dated 2003).

This data set can be described thus: Biodistribution of i.v. administered radioiodinated compounds in balb/c mice.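 Further: healthy mice given radioiodinated bisphosphonic acids, with randomly chosen groups of three animals per time point.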

Turning to “phosphonyl(M-[^125I]-iodobenzyl)Phosphoric Acid [31a]”, the “Femur to soft tissue ratio” value (24 h, soft tissue with highest uptake) is recorded as more than 25. For the same substance, the “Uptake in the thyroid” value (24 h postinjection) is reported as 0.13±0.03 % of the injected dose. Where the note is “24 h postinjection, i.v.”, the Uptake in femur came out at 2.05±0.49 % ID/g, the Uptake in kidneys worked out at 0.08±0.02 % ID/g and the Uptake in skull came to 1.22±0.19 % ID/g. Moreover, where the note is “single bolus tail vein injection, 100 μl”, the “Discomfort or toxicity after administration of samples” value is listed as “No sign of discomfort or toxicity was observed”.
